These results are taken from patent US9493464B2, “Wee1 degradation inhibitors” (The Scripps Research Institute, priority 2012, dated 2016).

The subject of test [1] is cerebellar granule cell progenitors (GCPs). The test is described as follows: In vitro proliferation of cerebellar granule cell progenitors (3H-thymidine uptake). As to conditions: SR-1277 versus SR-653234. The format is cell-based, mouse. How it is done: GCPs were incubated with DMSO, 5 μM D4476 (known CK1δ and CK1ε inhibitor), or 50 μM D4476 and processed for ^3H-thymidine incorporation after 24 hours. A representative experiment performed in triplicate is shown.

Another test has as its system 296 kinases. The test can be described thus: Kinase profile of 296 kinases (Reaction Biology Corporation). It is filed as biochemical.

In the case of `O=[N+]([O-])c1cccc2[nH]c(CNc3nc(N4CCOCC4)nc4c3ncn4-c3ccsc3)nc12` [SR-1277], the “potency as inhibitor of GCP proliferation relative to SR-653234” value in test [1] is 5-10 times. In the test on 296 kinases, the “selectivity among 296 kinases” value is given as “highly selective for casein kinase”.
